The results in this text go back to patent US11912693B2, “Compounds for modulating S1P1 activity and methods of using the same” (TREVENA, INC., priority 2017, dated 2024).

The chains behind the UniProt entries cited, without tags or fusion partners. Where a name states a change or a piece, a line headed by the entry shows the natural chain unless it says otherwise.
UniProt P21453, whole entry, looked up: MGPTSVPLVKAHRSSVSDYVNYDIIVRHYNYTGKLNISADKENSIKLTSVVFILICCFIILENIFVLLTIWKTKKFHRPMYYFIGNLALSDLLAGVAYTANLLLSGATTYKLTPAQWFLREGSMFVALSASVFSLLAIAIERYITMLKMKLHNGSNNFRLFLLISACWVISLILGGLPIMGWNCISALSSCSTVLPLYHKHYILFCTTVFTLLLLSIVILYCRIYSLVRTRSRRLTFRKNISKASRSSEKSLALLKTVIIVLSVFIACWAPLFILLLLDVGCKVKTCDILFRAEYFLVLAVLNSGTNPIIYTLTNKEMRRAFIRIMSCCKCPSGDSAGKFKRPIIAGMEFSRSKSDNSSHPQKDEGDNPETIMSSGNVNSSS
UniProt O95136: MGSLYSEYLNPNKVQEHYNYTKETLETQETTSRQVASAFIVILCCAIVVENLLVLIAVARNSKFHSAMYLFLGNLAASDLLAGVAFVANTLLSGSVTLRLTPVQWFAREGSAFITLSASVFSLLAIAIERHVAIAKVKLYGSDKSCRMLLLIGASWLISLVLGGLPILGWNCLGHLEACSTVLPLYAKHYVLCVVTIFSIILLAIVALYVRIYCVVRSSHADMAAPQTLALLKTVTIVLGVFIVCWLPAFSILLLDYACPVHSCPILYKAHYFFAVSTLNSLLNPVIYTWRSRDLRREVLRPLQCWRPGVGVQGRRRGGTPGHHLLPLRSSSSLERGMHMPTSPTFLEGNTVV
UniProt Q99500: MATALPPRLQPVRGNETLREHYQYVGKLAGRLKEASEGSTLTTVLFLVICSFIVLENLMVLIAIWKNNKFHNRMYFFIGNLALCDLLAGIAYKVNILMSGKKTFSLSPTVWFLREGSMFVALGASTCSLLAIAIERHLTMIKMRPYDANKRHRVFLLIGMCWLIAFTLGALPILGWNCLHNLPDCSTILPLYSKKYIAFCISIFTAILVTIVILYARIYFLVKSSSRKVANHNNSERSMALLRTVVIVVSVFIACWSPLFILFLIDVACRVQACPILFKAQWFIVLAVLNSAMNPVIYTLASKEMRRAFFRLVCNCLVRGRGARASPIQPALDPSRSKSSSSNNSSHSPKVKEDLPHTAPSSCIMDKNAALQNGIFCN
UniProt Q9H228: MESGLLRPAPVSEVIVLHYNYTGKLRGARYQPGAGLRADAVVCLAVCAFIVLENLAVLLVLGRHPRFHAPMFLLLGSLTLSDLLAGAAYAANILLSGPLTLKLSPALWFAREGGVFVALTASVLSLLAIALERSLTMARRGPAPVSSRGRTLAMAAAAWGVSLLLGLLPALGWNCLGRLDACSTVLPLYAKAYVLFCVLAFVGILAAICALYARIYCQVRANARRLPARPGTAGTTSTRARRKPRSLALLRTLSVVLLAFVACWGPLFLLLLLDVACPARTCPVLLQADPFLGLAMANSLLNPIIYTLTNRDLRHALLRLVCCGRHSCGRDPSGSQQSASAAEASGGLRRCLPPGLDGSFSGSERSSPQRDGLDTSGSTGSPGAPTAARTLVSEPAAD

Common to all, as to type: cell-based
Assay [1] deals with T1, human sphingosine-1-phosphate receptor 1 (S1P1) (Homo sapiens (Human), UniProt P21453). In words: Inhibition of cAMP production (HTRF cAMP HiRange), S1P1 CHO-K1 cells. As to the method:
(§1) Stable clonal Chinese hamster ovary K1 (CHO-K1) cells co-expressing EA-β-arrestin2 and the human sphingosine-1-phosphate receptor 1 (NM_001400, S1P1) with a C-terminal Prolink™ tag were purchased from DiscoverX corporation (Cat #: 93-0207C2).
Cell lines were cultured in AssayComplete™ Media 6 (DiscoverX Corporation, Cat #: 920018GF2) at 37° C. and 5% CO2 in a humidified CO2 and temperature-controlled incubator. To begin assay plating, cells were washed with dulbecco's phosphate buffered saline (CellGro, Cat #: 21-031-CV) and lifted from the culturing flask by incubation (37° C., 5 min) with CellStripper (Cellgro, Cat #: 25-056-CI). Lifted cells were resuspended to 250,000 cells per milliliter in AssayComplete™ Cell Plating 11 Reagent (DiscoverX Corporation, Cat #: 93-0563R11B) and plated at 5,000 cells per well in white-opaque 384 well plates (Greiner Bio-One Item #: 20-784080). […]
Agonist-promoted G-protein responses were determined by measuring changes in intracellular cAMP using the HTRF® cAMP HiRange kit (CisBio, Cat #: 62AM6PEJ) based on time-resolved fluorescence resonance energy transfer (TR-FRET) technology. […] After an hour incubation at room temperature, plates were analyzed by a BMG PheraStar microplate reader. Responses were measured as the ratio of fluorescence emission at 665 nm to fluorescence emission at 620 nm. […]
(In general: Cyclic AMP is a second messenger, typically raised through Gs and lowered through Gi signalling.)

Assay [2] concerns the target T1, human sphingosine-1-phosphate receptor 1 (S1P1). In words: β-Arrestin2 recruitment assay (PathHunter), S1P1 CHO-K1 cells. As to the method:
as §1
Cell lines were cultured in AssayComplete™ Media 6 (DiscoverX Corporation, Cat #: 920018GF2) at 37° C. and 5% CO2 in a humidified CO2 and temperature-controlled incubator. To begin assay plating, cells were washed with dulbecco's phosphate buffered saline (CellGro, Cat #: 21-031-CV) and lifted from the culturing flask by incubation (37° C., 5 min) with CellStripper (Cellgro, Cat #: 25-056-CI). Lifted cells were resuspended to 250,000 cells per milliliter in AssayComplete™ Cell Plating 11 Reagent (DiscoverX Corporation, Cat #: 93-0563R11B) and plated at 5,000 cells per well in white-opaque 384 well plates (Greiner Bio-One Item #: 20-784080). Plated cells were incubated overnight at 37° C. and 5% CO2 in a humidified CO2 and temperature-controlled incubator. Detecting Inhibition of cAMP Production
Agonist-promoted β-arrestin2 recruitment to the sphingosine-1-phosphate 1 receptor was determined using the β-arrestin PathHunter®) Detection kit (DiscoverX Corporation, Cat #: 93-0001). […] After an hour incubation at room temperature, plates were analyzed by a BMG PheraStar microplate reader. […]

For assay [3], the target named is human sphingosine-1-phosphate receptor 2 (S1P2) (Homo sapiens (Human), UniProt O95136). Nature of the assay: Inositol monophosphate production (IP-one TB kit), S1P2 CHO-K1 cells.
The target of assay [4] is human sphingosine-1-phosphate receptor 3 (S1P3) (Homo sapiens (Human), UniProt Q99500). In words: Inhibition of cAMP production (HTRF), S1P3 CHO-K1 cells.
For assay [5], the target named is sphingosine-1-phosphate receptor 5 (S1P5) (Homo sapiens (Human), UniProt Q9H228). In words: Inhibition of cAMP production (HTRF), S1P5 CHO-K1 cells.

In the case of `CC(C)Oc1ccc(-c2nc(-c3ccc4c(c3)nnn4C(C)C)no2)cc1C#N` [Compound 22, 2-isopropoxy-5-(3-(1-isopropyl-1H-benzo[d][1,2,3]triazol-5-yl)-1,2,4-oxadiazol-5-yl)benzonitrile], the Emax is > 75% in assay [1] (CHO-K1, read-out: hS1P1 cAMP SPAN); > 75% in assay [2] (CHO-K1, read-out: hS1P1 B-arrestin2 SPAN); < 50% in assay [3] (CHO-K1, read-out: hS1P2 IP-one SPAN); < 50% in assay [4] (CHO-K1, efficacy normalized to fingolimod, read-out: hS1P3 cAMP SPAN); < 50% in assay [5] (CHO-K1, efficacy normalized to fingolimod, read-out: hS1P5 cAMP SPAN). Besides, the “hS1P1 cAMP pEC50” value in assay [1] (inhibition of cAMP production, S1P1 CHO-K1 cells) is >6.5. For the same compound, the “hS1P1 B-arrestin2 pEC50” value in assay [2] (β-arrestin2 recruitment, S1P1 CHO-K1 cells) is >5. For the same compound, the “hS1P2 IP-one pEC50” value in assay [3] (inositol monophosphate accumulation, hS1P2) is >5.0. In addition, in assay [4] (inhibition of cAMP production, hS1P3), the “hS1P3 cAMP pEC50” value is reported as <5.0. The “hS1P5 cAMP pEC50” value in assay [5] (inhibition of cAMP production, hS1P5) is reported as >5.0.
